Assay results reported in patent US20040053822A1, “Inducing cellular immune responses to mage2/3 using peptide and nucleic acid compositions” (priority 2002, published 2004).

Sequences of proteins named here, by UniProt entry; tags and fusion partners are left off. A change or cut given only in a name is not applied to a line headed by its entry.
UniProt P04439: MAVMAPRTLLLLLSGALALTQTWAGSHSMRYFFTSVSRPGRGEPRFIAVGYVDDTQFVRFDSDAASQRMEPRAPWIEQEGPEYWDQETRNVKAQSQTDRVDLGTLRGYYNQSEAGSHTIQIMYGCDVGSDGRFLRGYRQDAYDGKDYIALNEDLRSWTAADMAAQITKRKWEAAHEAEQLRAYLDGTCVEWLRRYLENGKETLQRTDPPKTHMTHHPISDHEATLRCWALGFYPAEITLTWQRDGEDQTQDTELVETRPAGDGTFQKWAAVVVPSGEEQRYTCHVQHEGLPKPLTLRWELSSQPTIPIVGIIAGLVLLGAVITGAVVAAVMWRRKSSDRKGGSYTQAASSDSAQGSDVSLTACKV

Experiments:
[1] = tested on: A3-supertype alleles (A*0301, A*1101, A*3101, A*3301, and A*6801); assay: A3-supertype cross-reactive binding (five alleles); set-up: species or system human
[2] = tested on: B7-supertype molecules (B*0702, B*3501, B*5101, B*5301, and B*5401); assay: B7-supertype cross-reactive binding (five alleles); set-up: species or system human
HLA-A*3101 = HLA-A*3101 (Homo sapiens, UniProt P04439, A270S/D185E/E176V/E277Q/F33T/G231S/G80R/H175R/I121M/I218V/I322F/K168Q/L300P/L318F/M331R/P217A/Q94H/R138Q/T323A/T345S/T97I/V358M); assay: Purified HLA class I peptide binding assay, A*3101; details: binding affinity, HLA-A3 supermotif-bearing peptides
HLA-A*3301 = HLA-A*3301 (Homo sapiens, UniProt P04439, A270S/D185E/E176V/E277Q/E87N/F33T/G231S/H175R/I121M/I218V/I322F/K168Q/K210R/L300P/L318F/M331R/P217A/Q86R/Q94H/R138Q/T323A/T345S/T97I/V358M/Y195H); assay: Purified HLA class I peptide binding assay, A*3301; details: binding affinity, HLA-A3 supermotif-bearing peptides

| SMILES | No. of B7 Alleles Crossbound [2] | also measured |
| --- | --- | --- |
| CC[C@H](C)[C@H](NC(=O)[C@H](CC(C)C)NC(=O)[C@H](C)N)C(=O)N[C@@H](CCC(=O)O)C(=O)N[C@H](C(=O)N[C@@H](CO)C(=O)N[C@@H](Cc1ccc(O)cc1)C(=O)N[C@H](C(=O)N[C@@H](CCCCN)C(=O)O)C(C)C)[C@@H](C)O | – | No. of A3 Alleles Crossbound [1]: 3 |
| CC[C@H](C)[C@H](NC(=O)[C@@H]1CCCN1C(=O)[C@@H]1CCCN1C(=O)[C@H](Cc1ccc(O)cc1)NC(=O)[C@H](CO)NC(=O)[C@@H](NC(=O)[C@H](Cc1c[nH]cn1)NC(=O)[C@@H]1CCCN1C(=O)[C@@H](N)Cc1ccccc1)[C@@H](C)CC)C(=O)O | 5 | – |
| CC[C@H](C)[C@H](NC(=O)[C@H](Cc1c[nH]cn1)NC(=O)[C@@H]1CCCN1C(=O)[C@@H](N)Cc1ccccc1)C(=O)N[C@@H](CO)C(=O)N[C@@H](Cc1ccc(O)cc1)C(=O)N1CCC[C@H]1C(=O)N1CCC[C@H]1C(=O)N[C@@H](CC(C)C)C(=O)O | 5 | – |
| CC[C@H](C)[C@H](NC(=O)[C@H](Cc1ccc(O)cc1)NC(=O)[C@H](CC(C)C)NC(=O)[C@H](Cc1c[nH]cn1)NC(=O)CNC(=O)[C@@H](NC(=O)[C@@H]1CCCN1C(=O)[C@@H](N)Cc1ccccc1)[C@@H](C)CC)C(=O)N[C@@H](Cc1ccccc1)C(=O)N[C@@H](C)C(=O)O | 5 | – |
| CC[C@H](C)[C@H](NC(=O)[C@H](Cc1ccccc1)NC(=O)[C@@H](NC(=O)[C@H](Cc1ccc(O)cc1)NC(=O)[C@H](CC(C)C)NC(=O)[C@H](Cc1c[nH]cn1)NC(=O)CNC(=O)[C@@H](NC(=O)[C@@H]1CCCN1C(=O)[C@@H](N)Cc1ccccc1)[C@@H](C)CC)[C@@H](C)CC)C(=O)O | 5 | – |
| CC[C@H](C)[C@H](NC(=O)[C@@H](NC(=O)[C@H](Cc1ccc(O)cc1)NC(=O)[C@H](CC(C)C)NC(=O)[C@H](Cc1c[nH]cn1)NC(=O)CNC(=O)[C@@H](NC(=O)[C@@H]1CCCN1C(=O)[C@@H](N)Cc1ccccc1)[C@@H](C)CC)[C@@H](C)CC)C(=O)O | 5 | – |
| CC[C@H](C)[C@H](NC(=O)[C@H](Cc1ccc(O)cc1)NC(=O)[C@H](CC(C)C)NC(=O)[C@H](Cc1c[nH]cn1)NC(=O)[C@H](CO)NC(=O)[C@@H](NC(=O)[C@@H]1CCCN1C(=O)[C@@H](N)Cc1ccccc1)[C@@H](C)CC)C(=O)O | 4 | – |
| CC[C@H](C)[C@H](NC(=O)[C@H](Cc1ccc(O)cc1)NC(=O)[C@H](CC(C)C)NC(=O)[C@H](Cc1c[nH]cn1)NC(=O)[C@H](CO)NC(=O)[C@@H](NC(=O)[C@@H]1CCCN1C(=O)[C@@H](N)Cc1ccccc1)[C@@H](C)CC)C(=O)N[C@@H](CC(C)C)C(=O)N[C@H](C(=O)O)C(C)C | 5 | – |
| CC[C@H](C)[C@H](NC(=O)[C@H](CC(C)C)NC(=O)[C@H](CC(C)C)NC(=O)CNC(=O)[C@H](C)NC(=O)[C@H](CCCCN)NC(=O)[C@@H]1CCCN1C(=O)[C@@H](N)Cc1ccccc1)C(=O)O | 3 | – |
| CC[C@H](C)[C@H](NC(=O)[C@H](CC(C)C)NC(=O)[C@H](CC(C)C)NC(=O)CNC(=O)[C@H](C)NC(=O)[C@H](CCCCN)NC(=O)[C@@H]1CCCN1C(=O)[C@@H](N)Cc1ccccc1)C(=O)N[C@H](C(=O)N[C@H](C(=O)O)C(C)C)[C@@H](C)CC | 3 | – |
| CC[C@H](C)[C@H](NC(=O)[C@H](CC(C)C)NC(=O)[C@H](CC(C)C)NC(=O)CNC(=O)[C@@H](NC(=O)[C@H](CCCCN)NC(=O)[C@@H]1CCCN1C(=O)[C@@H](N)Cc1ccccc1)[C@@H](C)O)C(=O)O | 3 | – |
| CC[C@H](C)[C@H](NC(=O)[C@@H](NC(=O)[C@H](CC(C)C)NC(=O)[C@H](CC(C)C)NC(=O)CNC(=O)[C@@H](NC(=O)[C@H](CCCCN)NC(=O)[C@@H]1CCCN1C(=O)[C@@H](N)Cc1ccccc1)[C@@H](C)O)[C@@H](C)CC)C(=O)O | 4 | – |
| CC[C@H](C)[C@H](NC(=O)[C@H](CO)NC(=O)[C@H](CCC(N)=O)NC(=O)[C@H](CO)NC(=O)[C@H](Cc1c[nH]c2ccccc12)NC(=O)[C@H](CC(C)C)NC(=O)[C@@H]1CCCN1C(=O)[C@@H](N)Cc1ccccc1)C(=O)O | 4 | – |
| CC[C@H](C)[C@H](NC(=O)[C@H](CO)NC(=O)[C@H](CO)NC(=O)[C@H](C)NC(=O)CNC(=O)[C@H](CCC(N)=O)NC(=O)[C@@H]1CCCN1C(=O)[C@@H](N)Cc1ccccc1)C(=O)O | 3 | – |
| CC[C@H](C)[C@H](NC(=O)[C@H](Cc1ccc(O)cc1)NC(=O)[C@H](CO)NC(=O)[C@@H](NC(=O)[C@H](CCC(=O)O)NC(=O)[C@@H](NC(=O)[C@H](CC(C)C)NC(=O)[C@H](C)NC(=O)[C@H](CCCNC(=N)N)NC(=O)[C@@H]1CCCN1C(=O)[C@@H](N)Cc1ccccc1)[C@@H](C)CC)[C@@H](C)O)C(=O)O | 4 | – |
| CC[C@H](C)[C@H](NC(=O)[C@H](CC(C)C)NC(=O)[C@H](C)NC(=O)[C@H](CCCNC(=N)N)NC(=O)[C@@H]1CCCN1C(=O)[C@@H](N)Cc1ccccc1)C(=O)N[C@@H](CCC(=O)O)C(=O)N[C@H](C(=O)N[C@@H](CO)C(=O)N[C@@H](Cc1ccc(O)cc1)C(=O)N[C@H](C(=O)O)C(C)C)[C@@H](C)O | 3 | – |
| CC[C@H](C)[C@H](NC(=O)[C@H](Cc1ccc(O)cc1)NC(=O)[C@H](CO)NC(=O)[C@@H](NC(=O)[C@H](CCC(=O)O)NC(=O)[C@@H](NC(=O)[C@H](CC(C)C)NC(=O)[C@H](C)NC(=O)[C@H](CCCNC(=N)N)NC(=O)[C@@H]1CCCN1C(=O)[C@@H](N)Cc1ccccc1)C(C)C)[C@@H](C)O)C(=O)O | 3 | – |
| CC(C)C[C@H](NC(=O)[C@H](C)NC(=O)[C@H](CCCNC(=N)N)NC(=O)[C@@H]1CCCN1C(=O)[C@@H](N)Cc1ccccc1)C(=O)N[C@H](C(=O)N[C@@H](CCC(=O)O)C(=O)N[C@H](C(=O)N[C@@H](CO)C(=O)N[C@@H](Cc1ccc(O)cc1)C(=O)N[C@H](C(=O)O)C(C)C)[C@@H](C)O)C(C)C | 3 | – |
| CC[C@H](C)[C@H](NC(=O)[C@@H]1CCCN1C(=O)[C@H](Cc1ccc(O)cc1)NC(=O)[C@H](CC(N)=O)NC(=O)[C@H](CCSC)NC(=O)[C@@H](NC(=O)[C@@H](NC(=O)[C@@H]1CCCN1C(=O)[C@@H](N)Cc1ccccc1)[C@@H](C)O)[C@@H](C)O)C(=O)O | 5 | – |
| CSCC[C@H](NC(=O)[C@@H](NC(=O)[C@@H](NC(=O)[C@@H]1CCCN1C(=O)[C@@H](N)Cc1ccccc1)[C@@H](C)O)[C@@H](C)O)C(=O)N[C@@H](CC(N)=O)C(=O)N[C@@H](Cc1ccc(O)cc1)C(=O)N1CCC[C@H]1C(=O)N[C@@H](CC(C)C)C(=O)O | 5 | – |
| CC[C@H](C)[C@H](NC(=O)[C@@H](NC(=O)[C@@H](NC(=O)[C@H](CO)NC(=O)[C@@H](N)Cc1ccccc1)[C@@H](C)O)[C@@H](C)O)C(=O)N[C@@H](CC(N)=O)C(=O)N[C@@H](Cc1ccc(O)cc1)C(=O)N[C@H](C(=O)N[C@@H](CC(C)C)C(=O)N[C@@H](Cc1c[nH]c2ccccc12)C(=O)N[C@@H](CCCNC(=N)N)C(=O)O)[C@@H](C)O | – | IC50 (HLA-A*3101): 0.257 µM; No. of A3 Alleles Crossbound [1]: 3 |
| CC(C)C[C@H](NC(=O)[C@H](CC(C)C)NC(=O)[C@H](CC(C)C)NC(=O)[C@H](Cc1ccccc1)NC(=O)[C@H](Cc1c[nH]cn1)NC(=O)[C@@H](NC(=O)[C@@H](N)CC(C)C)C(C)C)C(=O)N[C@@H](CCCCN)C(=O)N[C@@H](CCCCN)C(=O)O | – | IC50 (HLA-A*3301): > 10 µM; IC50 (HLA-A*3101): > 10 µM; No. of A3 Alleles Crossbound [1]: 3 |
| CC[C@H](C)[C@H](NC(=O)[C@@H](NC(=O)[C@H](CC(C)C)NC(=O)[C@H](CC(C)C)NC(=O)CNC(=O)[C@H](C)NC(=O)[C@H](CCCCN)NC(=O)[C@@H]1CCCN1C(=O)[C@@H](N)CCSC)[C@@H](C)CC)C(=O)O | 3 | – |
| CC[C@H](C)[C@H](NC(=O)[C@@H](NC(=O)[C@@H](NC(=O)[C@@H](N)CO)[C@@H](C)O)[C@@H](C)O)C(=O)N[C@@H](CC(N)=O)C(=O)N[C@@H](Cc1ccc(O)cc1)C(=O)N[C@H](C(=O)N[C@@H](CC(C)C)C(=O)N[C@@H](Cc1c[nH]c2ccccc12)C(=O)N[C@@H](CCCCN)C(=O)O)[C@@H](C)O | – | IC50 (HLA-A*3301): > 10 µM; IC50 (HLA-A*3101): > 10 µM; No. of A3 Alleles Crossbound [1]: 3 |
| CC(C)[C@H](NC(=O)[C@@H](N)CO)C(=O)N[C@@H](Cc1ccccc1)C(=O)N[C@@H](C)C(=O)N[C@@H](Cc1c[nH]cn1)C(=O)N1CCC[C@H]1C(=O)N[C@@H](CCCNC(=N)N)C(=O)N[C@@H](CCCCN)C(=O)O | – | IC50 (HLA-A*3301): > 10 µM; No. of A3 Alleles Crossbound [1]: 3 |
| CC[C@H](C)[C@H](NC(=O)[C@H](Cc1ccc(O)cc1)NC(=O)[C@H](CC(C)C)NC(=O)[C@H](Cc1c[nH]cn1)NC(=O)[C@H](CO)NC(=O)[C@@H](NC(=O)[C@@H]1CCCN1C(=O)[C@@H](N)C(C)C)[C@@H](C)CC)C(=O)N[C@@H](CC(C)C)C(=O)N[C@H](C(=O)O)C(C)C | 2 | – |
| CC[C@H](C)[C@H](NC(=O)[C@H](Cc1ccc(O)cc1)NC(=O)[C@H](CC(C)C)NC(=O)[C@H](CCSC)NC(=O)[C@H](CO)NC(=O)[C@@H](NC(=O)[C@@H]1CCCN1C(=O)[C@@H](N)C(C)C)[C@@H](C)CC)C(=O)N[C@@H](CC(C)C)C(=O)O | 3 | – |
